The species named for this test is Homo sapiens. Nature of the test: Selectivity index, ratio of IC50 for HK-2 cells to IC50 for human MDA-MB-231 cells.

On to `O=C(/C=C/c1ccccc1)Nc1cc(-c2ccnc(N3CCC(CO)CC3)c2)ccn1`, for which the Ratio IC50 is 23.2.

These data come from ChEMBL document CHEMBL5321216, “Discovery of bipyridine amide derivatives targeting pRXRα-PLK1 interaction for anticancer therapy” (Eur J Med Chem, 2023).
